For this test, the system named is cord blood hematopoietic progenitors (CD34+ cells, CFC). The test can be described thus: Cytotoxicity normal tissue 72 hr (Table 27).

pIC50: −log10 of the molar value.

As a reminder, the pIC50 is the IC50 on a negative log10 scale, so that one unit is a factor of ten. Lower therefore signals a high IC50. As to `N.N.[Cl][Pt][Cl]` [Cisplatin], the pIC50 was 5.22.
In turn, `CCc1c2c(nc3ccc(O)cc13)-c1cc3c(c(=O)n1C2)COC(=O)[C@]3(O)CC` [SN-38] had a pIC50 of 5.15.

The values are drawn from patent US20200246284A1 (Academia Sinica, priority 2015, published 2020).
